# Assay results: ChEMBL document CHEMBL3286130, “8-Substituted 2-alkynyl-N(9)-propargyladenines as A2A adenosine receptor antagonists” (Bioorg Med Chem, 2014)
# Tests used:
# [1] = test system: HEK293; experiment: Selectivity ratio of Ki for human adenosine A2B receptor expressed in HEK293 cells to Ki for human adenosine A2A receptor expressed in HEK293 cells; assay type: cell-based
# [2] = test system: HEK293; experiment: Selectivity ratio of Ki for human adenosine A1 receptor expressed in CHOK1 cells to Ki for human adenosine A2A receptor expressed in HEK293 cells; assay type: cell-based
smiles,measurement,setting,value
C#CCn1c(Br)nc2c(N)nc(C#CCCCCCC)nc21,Ratio Ki,[1],1300
same,Ratio Ki,[2],10
